# Measured affinities in a library of Ab-14 light chain variants

Source: Engelhart et al. 2022 (doi:10.1038/s41597-022-01779-4), MIT Lincoln Laboratory and A-Alpha Bio; data file from the FLAb repository.

Antigen: PDVDLGDISGINAS, a 14-residue peptide of the SARS-CoV-2 spike HR2 region.

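The starting antibody came from a phage panning campaign against this peptide. The library (AAYL50) carries one to three amino acid substitutions per variant, with no insertions or deletions. The scFvs were displayed on barcoded MATa yeast, the peptide on MATalpha yeast. Pairs that bind mate more often; barcode pairs of the diploids are counted by sequencing. Read counts were normalised to the haploid input and turned into Kd by a linear fit to BCL2-family pairs of known affinity, for each replicate. The assay was run in three technical replicates.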

Parent scFv Ab-14: VH joined to VL by the linker GGGGSGGGGSGGGGS. Changes lie in the light chain CDRs alone.
VH: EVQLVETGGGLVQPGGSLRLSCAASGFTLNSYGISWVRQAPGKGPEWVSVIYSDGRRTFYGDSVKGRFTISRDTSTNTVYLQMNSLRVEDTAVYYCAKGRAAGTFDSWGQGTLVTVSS
VL: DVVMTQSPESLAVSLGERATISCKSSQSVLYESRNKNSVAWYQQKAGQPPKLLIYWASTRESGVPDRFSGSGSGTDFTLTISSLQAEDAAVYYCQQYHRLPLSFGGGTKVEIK

The whole VL of each variant is written out.
Values are log10 of the apparent Kd in nM; lower means stronger binding.
A pair that was not seen in that replicate is written "n.d."; this usually means weak binding, but a binder can also be missed.

{"VL": "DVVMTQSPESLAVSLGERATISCKSSQSWLYESRNKNSVAWYQQKAGQPPKLLIYWNSVRESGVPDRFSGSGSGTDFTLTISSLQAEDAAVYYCQQYHRLPLSFGGGTKVEIK", "log10 Kd (nM) by replicate": "2.43 / 3.32 / 2.57", "control signals": "0 of 9"}
{"VL": "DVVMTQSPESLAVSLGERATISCKSRQSVLYESRNKNSVAWYQQKAGQPPKLLIYWASSRESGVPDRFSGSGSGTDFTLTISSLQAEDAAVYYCQQYHRLHLSFGGGTKVEIK", "log10 Kd (nM) by replicate": "n.d. / 3.29 / n.d.", "control signals": "1 of 9 (3.05)"}
{"VL": "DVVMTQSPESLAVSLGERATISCKSSQSVLYENRNKNSVAWYQQKAGQPPKLLIYWASERESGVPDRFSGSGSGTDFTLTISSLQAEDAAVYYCQQEHRLPLSFGGGTKVEIK", "log10 Kd (nM) by replicate": "n.d. / n.d. / n.d.", "control signals": "3 of 9 (5.16)"}
{"VL": "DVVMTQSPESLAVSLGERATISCKSSQSVLNESRNKNNVAWYQQKAGQPPKLLIYWASTRESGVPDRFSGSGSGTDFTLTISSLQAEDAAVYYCQQYHRLYLSFGGGTKVEIK", "log10 Kd (nM) by replicate": "1.20 / 0.98 / 0.67", "control signals": "0 of 9"}
{"VL": "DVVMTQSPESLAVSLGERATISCKSIQSGLYESRMKNSVAWYQQKAGQPPKLLIYWASTRESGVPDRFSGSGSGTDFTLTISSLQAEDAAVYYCQQYHRLPLSFGGGTKVEIK", "log10 Kd (nM) by replicate": "1.78 / 1.63 / 2.13", "control signals": "0 of 9"}
{"VL": "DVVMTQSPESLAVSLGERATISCKSSQSVLYESRNKESVAWYQQKAGQPPKLLIYWASTRMSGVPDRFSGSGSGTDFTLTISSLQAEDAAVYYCQQYHRLPLSFGGGTKVEIK", "log10 Kd (nM) by replicate": "1.19 / 1.52 / 1.65", "control signals": "1 of 9 (3.05)"}
{"VL": "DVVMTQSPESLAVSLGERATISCMSSQSVLYESRNKNSVAWYQQKAGQPPKLLIYWARTRESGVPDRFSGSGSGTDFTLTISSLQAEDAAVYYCQQYHRLPSSFGGGTKVEIK", "log10 Kd (nM) by replicate": "3.63 / 3.23 / 3.93", "control signals": "4 of 9 (4.48)"}
{"VL": "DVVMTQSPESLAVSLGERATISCRSSQSVLYESRNKNSVAWYQQKAGQPPKLLIYWASTYESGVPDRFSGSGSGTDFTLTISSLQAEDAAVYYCQQYHRLPESFGGGTKVEIK", "log10 Kd (nM) by replicate": "n.d. / n.d. / n.d.", "control signals": "0 of 9"}
{"VL": "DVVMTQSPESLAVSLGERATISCKSSQSVLYYSRNKNSVAWYQQKAGQPPKLLIYWANTRESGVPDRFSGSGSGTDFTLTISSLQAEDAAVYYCQTYHRLPLSFGGGTKVEIK", "log10 Kd (nM) by replicate": "n.d. / n.d. / n.d.", "control signals": "0 of 9"}
{"VL": "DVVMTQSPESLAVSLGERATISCKSSQSVLYESRNKNSVAWYQQKAGQPPKLLIYWASTRESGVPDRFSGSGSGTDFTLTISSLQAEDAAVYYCLWYDRLPLSFGGGTKVEIK", "log10 Kd (nM) by replicate": "n.d. / n.d. / n.d.", "control signals": "0 of 9"}
{"VL": "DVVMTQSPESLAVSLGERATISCKDSQFVLYESRNKNSVAWYQQKAGQPPKLLIYWASTRESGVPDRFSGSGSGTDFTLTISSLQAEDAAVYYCQQYHRLPLSFGGGTKVEIK", "log10 Kd (nM) by replicate": "1.85 / 1.45 / 1.81", "control signals": "0 of 9"}
{"VL": "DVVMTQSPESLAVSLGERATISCLSSQSVLYESRNKNSVAWYQQKAGQPPKLLIYWASTRESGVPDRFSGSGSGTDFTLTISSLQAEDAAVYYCQQYTRLPLHFGGGTKVEIK", "log10 Kd (nM) by replicate": "n.d. / n.d. / n.d.", "control signals": "0 of 9"}
{"VL": "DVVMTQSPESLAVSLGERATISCKSSQSVLYESRNKNAVAWYQQKAGQPPKLLIYWASTYESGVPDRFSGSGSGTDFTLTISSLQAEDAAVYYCQQYHRLPLSFGGGTKVEIK", "log10 Kd (nM) by replicate": "n.d. / 3.72 / 2.97", "control signals": "0 of 9"}
{"VL": "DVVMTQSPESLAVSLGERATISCKSSQSVLYESRHKNSVAWYQQKAGQPPKLLIYWASTRESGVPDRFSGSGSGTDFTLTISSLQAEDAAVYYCQQYHRLPLSFGGGTKVEIK", "log10 Kd (nM) by replicate": "1.44 / 1.31 / 1.78", "control signals": "0 of 9"}

2 of these entries, quoted again:

{"VL": "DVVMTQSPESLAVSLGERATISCKSRQSVLYESRNKNSVAWYQQKAGQPPKLLIYWASSRESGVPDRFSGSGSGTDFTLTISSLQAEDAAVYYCQQYHRLHLSFGGGTKVEIK", "log10 Kd (nM) by replicate": "n.d. / 3.29 / n.d.", "control signals": "1 of 9 (3.05)"}
{"VL": "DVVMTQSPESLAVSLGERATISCKSIQSGLYESRMKNSVAWYQQKAGQPPKLLIYWASTRESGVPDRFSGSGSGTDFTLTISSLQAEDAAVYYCQQYHRLPLSFGGGTKVEIK", "log10 Kd (nM) by replicate": "1.78 / 1.63 / 2.13", "control signals": "0 of 9"}

Empty control strains, which show no peptide, gave a signal in 18% of pairings with library AAYL50; the median was 4.19 and 95% of these signals were weaker than 2.99. No background was subtracted. For each scFv, signals with the empty controls are counted beside the result, with their mean in brackets.
Parent in this assay: reference entry 0.65, copy in this library 1.68.